Data set [1] in a line: In vitro release of BP or HM from PLGA 50:50 rods. The format is physicochemical.
Data set [2] relates to rats with sciatic nerve ligation. Nature of the data set: Paw withdrawal threshold after sciatic nerve ligation, rods placed parallel to the nerve. The arrangement: species or system Sprague-Dawley rats. Conditions: rat, in vivo.
The nature of data set [3]: Drug release studies of PLGA 85:15 rods (Example 2). In kind it is physicochemical.
For data set [4] the following is noted: rat.
Another data set concerns rats. Description: Anesthesia after intrathecal polymeric implants, all sites tested (Example 2). Conditions: rat, in vivo.

Structures are written as SMILES. Entries after “also recorded” stand apart in the source; their conditions may differ.

Regarding `CN1CC[C@]23c4c5ccc(O)c4O[C@H]2C(=O)CC[C@H]3[C@H]1C5` [Hydromorphone, hydromorphone], in data set [1], the “in vitro extent of release over time” value is reported as “almost all of its contents within a month” and the “in vitro release behavior” value was “almost first order behavior”. Besides, the “analgesia, paw withdrawal threshold (difference score)” value in data set [2] is “insufficient to provide analgesia; also recorded: possible to achieve the analgesic effect”. In data set [3], the “relative rate of drug release” value is on record as “slowest”. Further, the “release from rods retrieved after termination of in vivo test” value in data set [4] is listed as “significant release”. In addition, in the data set on rats, the duration of anesthesia/analgesia lay within 3 to 4 days and the “time of highest degree of anesthesia after implantation” value was 2 h.

For the origin of these results see US6913760B2, “Drug delivery composition” (New England Medical Hospitals, Inc., priority 2001, dated 2005).
